Results taken from patent US12048783B2, “2,4-disubstituted pyridines as malodor counteracting ingredients” (FIRMENICH SA, priority 2017, dated 2024).

Tested on: Olfr740 (indole olfactory receptor)
Test: Inhibition of indole-induced activity of olfactory receptor Olfr740 in a stable cell line (FIG. 4 panel b)
Assay type: cell-based, mouse
Details: antagonism, dose-dependent decrease of receptor activity, single activating concentration of indole, FIG. 4B, read-out: Olfr742 (text: Olfr740) EC50

CCCCCc1cc(C)ccn1 [Capsydine]
EC50: 309 µM
